Values of other authors as cited in paper PMC5437307 (2017).

By UniProt entry, the sequences of proteins in these tests, tags left out. Residues count along the entry.
UniProt P01589, 22-240, chain 1 of 3: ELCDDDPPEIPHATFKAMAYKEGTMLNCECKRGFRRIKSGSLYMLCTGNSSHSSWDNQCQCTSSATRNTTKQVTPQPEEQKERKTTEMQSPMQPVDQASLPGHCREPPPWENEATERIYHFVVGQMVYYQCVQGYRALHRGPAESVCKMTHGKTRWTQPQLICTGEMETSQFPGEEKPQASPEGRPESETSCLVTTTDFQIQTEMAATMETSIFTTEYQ
UniProt P60568, 21-153: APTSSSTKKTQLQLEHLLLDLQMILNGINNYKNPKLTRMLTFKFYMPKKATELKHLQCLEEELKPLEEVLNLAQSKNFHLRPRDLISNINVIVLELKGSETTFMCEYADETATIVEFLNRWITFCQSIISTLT

Biological target: IL-2Rαβγc (Homo sapiens) (UniProt P01589)
Conditions: cited from earlier work

IL-2 (from UniProt P60568)
Kd: 0.01 nM
